Laboratory results reported in US8455665B2, “3-phenoxymethylpyrrolidine compounds” (Theravance, Inc., priority 2009, dated 2013).

Sequences of proteins named here, by UniProt entry; tags and fusion partners are left off.
UniProt P31645, whole entry: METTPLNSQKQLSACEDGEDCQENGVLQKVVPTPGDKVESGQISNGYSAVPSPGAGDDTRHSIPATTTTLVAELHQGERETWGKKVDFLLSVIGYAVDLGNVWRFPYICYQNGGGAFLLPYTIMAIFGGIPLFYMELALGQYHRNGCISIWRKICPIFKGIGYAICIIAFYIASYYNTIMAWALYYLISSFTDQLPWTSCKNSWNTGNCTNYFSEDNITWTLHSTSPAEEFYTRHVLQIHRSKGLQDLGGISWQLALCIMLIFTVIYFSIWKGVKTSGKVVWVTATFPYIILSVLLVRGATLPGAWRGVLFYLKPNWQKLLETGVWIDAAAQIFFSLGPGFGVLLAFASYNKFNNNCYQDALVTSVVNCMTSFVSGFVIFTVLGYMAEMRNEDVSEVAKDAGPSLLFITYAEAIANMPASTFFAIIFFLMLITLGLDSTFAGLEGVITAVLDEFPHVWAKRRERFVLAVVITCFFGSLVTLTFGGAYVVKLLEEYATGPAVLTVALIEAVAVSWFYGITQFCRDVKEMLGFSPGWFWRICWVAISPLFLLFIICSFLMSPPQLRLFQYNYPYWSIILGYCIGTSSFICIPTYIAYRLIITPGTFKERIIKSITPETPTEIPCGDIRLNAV
UniProt P23975, whole entry: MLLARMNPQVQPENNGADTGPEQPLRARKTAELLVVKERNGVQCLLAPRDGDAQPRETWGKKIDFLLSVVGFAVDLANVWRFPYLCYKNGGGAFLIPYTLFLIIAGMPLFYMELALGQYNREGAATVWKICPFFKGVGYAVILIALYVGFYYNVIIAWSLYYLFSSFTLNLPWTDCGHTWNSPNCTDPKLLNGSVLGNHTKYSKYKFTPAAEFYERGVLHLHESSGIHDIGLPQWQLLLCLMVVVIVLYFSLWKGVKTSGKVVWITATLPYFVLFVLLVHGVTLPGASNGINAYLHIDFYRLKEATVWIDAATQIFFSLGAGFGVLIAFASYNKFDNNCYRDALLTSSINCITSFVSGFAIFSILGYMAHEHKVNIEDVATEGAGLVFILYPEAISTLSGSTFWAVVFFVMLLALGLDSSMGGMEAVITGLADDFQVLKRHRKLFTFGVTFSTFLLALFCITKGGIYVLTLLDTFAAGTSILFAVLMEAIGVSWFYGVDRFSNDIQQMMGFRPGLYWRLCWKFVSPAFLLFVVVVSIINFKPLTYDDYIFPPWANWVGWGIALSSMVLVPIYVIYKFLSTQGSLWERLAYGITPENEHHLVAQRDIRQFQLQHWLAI

Assays:
[1] = molecular target: SERT (Homo sapiens, UniProt P31645); experiment: hSERT membrane radioligand binding assay (3H-citalopram); settings: hSERT membranes (HEK-293), 1.0 nM 3H-citalopram; tested form: TFA
[2] = molecular target: NET (Homo sapiens, UniProt P23975); experiment: hNET membrane radioligand binding assay (3H-nisoxetine); settings: hNET membranes (HEK-293), 1.0 nM 3H-nisoxetine; tested form: TFA

In the case of `CSCCC(Oc1ccc(Cl)cc1C(F)(F)F)C1CCNC1` (centres unmarked), the “SERT pKi” value [1] is reported as “≧8.0” and the “NET pKi” value [2] is reported as “≧7.0”.
